# logP (octanol/water) values, as collected for the OPERA models

From the experimental data distributed with OPERA 2.9.

logP is the log10 of the octanol-water partition coefficient; higher is more lipophilic. "–" marks a cell with nothing listed here. "via" names the databases from which the curators took the value.

SMILES,name,logP,via
Cc1c([N+](=O)[O-])nc(Br)n1C,"2-Bromo-1,5-dimethyl-4-nitro-1H-imidazole",0.39,OCHEM
C[SiH](C)C,"Silane, trimethyl-",1.205,eChemPortal
O=C(O)CCCCCCC(=O)O,Octanedioic acid,0.59,eChemPortal
O/C(=N\c1ccc2nc(O)[nH]c2c1)c1cc2ccccc2cc1O.[HH].[Na+],–,2.02,eChemPortal
CC(C)CC(C)O (stereo unspecified),4-Methyl-2-pentanol,1.43,PubChem
Cc1cc(O)c2ccccc2c1O,Menadiol,2.76,OCHEM
CCCCc1ncc(/C=C(\Cc2cccs2)C(=O)O)n1Cc1ccc(C(=O)O)cc1,Eprosartan,3.9,PubChem
CC(=O)N1C[C@H](O)C[C@H]1C(=O)O,Oxaceprol,-1.51,eChemPortal
CC(C)COC(=S)[S-].[Na+],–,-2.48,eChemPortal
O=C(O)c1cc(=O)n(CCO)c(=O)[nH]1,–,-1.48,OCHEM
CCCCOC(=O)[C@@H](CC)[C@H](CO)Cc1cncn1C,–,1.73,OCHEM
[Cr+2].[Cr+2].[NH-]c1ccc2c([O-])c(/N=N/c3cc([N+](=O)[O-])cc(S(=O)(=O)[O-])c3[O-])c(S(=O)(=O)[O-])cc2c1/N=N\c1cc(S(=O)(=O)[O-])cc(C(=O)[O-])c1[O-].[Na+].[Na+].[Na+].[Na+],–,-2.5,eChemPortal
C=CCOC(=O)CC(C)=O,Allyl acetoacetate,1.4,eChemPortal
O=S(=O)([O-])c1ccc([O-])c(/N=N/c2c(S(=O)(=O)[O-])cc3cc(Nc4nc(NCCO)nc(Nc5ccc6c([O-])c(/N=N/c7cc(S(=O)(=O)[O-])ccc7[O-])c(S(=O)(=O)[O-])cc6c5)n4)ccc3c2[O-])c1.[Cu+2].[Cu+2].[Na+].[Na+].[Na+].[Na+],–,-2.795,eChemPortal
CN(C)Cc1ccc(C(=O)OCn2[nH]cc3c(=O)ncnc2-3)cc1,–,1.05,OCHEM
CCCCCCOC(=O)c1ccccc1,Hexyl benzoate,5.1,eChemPortal
O=C(O)C1=NN(c2ccc(S(=O)(=O)O)cc2)C(=O)C1/N=N/c1ccc(S(=O)(=O)[O-])cc1.O=C(O)C1=NN(c2ccc(S(=O)(=O)O)cc2)C(=O)C1/N=N/c1ccc(S(=O)(=O)[O-])cc1.O=C(O)C1=NN(c2ccc(S(=O)(=O)O)cc2)C(=O)C1/N=N/c1ccc(S(=O)(=O)[O-])cc1.[Al+3] (stereo partly drawn),C.I. Pigment Yellow 100,0.028,eChemPortal
OCCOCCN1CCN(C(c2ccccc2)c2ccc(Cl)cc2)CC1 (stereo unspecified),Hydroxyzine,2.7,PubChem
CC(C)(O/N=C(\C(=O)NC1C(=O)N2C(C(=O)[O-])=C(C[n+]3ccccc3)CSC12)c1csc(N)n1)C(=O)O.O.O.O.O.O (stereo partly drawn),Ceftazidime pentahydrate,-1.6,"OCHEM, PubChem"
CCC(=O)[C-]1C(=O)CC(C(=O)[O-])CC1=O.CCC(=O)[C-]1C(=O)CC(C(=O)[O-])CC1=O.[Ca+2].[Ca+2],Prohexadione-calcium,-2.9,"OCHEM, PubChem"
O=C(Nc1cccc(N(CCO)CCO)c1)c1ccccc1,"Benzamide, N-[3-[bis(2-hydroxyethyl)amino]phenyl]-",1.54,OCHEM
O=S(=O)([O-])CCCSSCCCS(=O)(=O)[O-].[Na+].[Na+],"1-Propanesulfonic acid, 3,3'-dithiobis-, sodium salt (1:2)",-3.68,eChemPortal
Cc1ccc(N)c(Cl)c1,2-Chloro-4-methylaniline,2.58,OCHEM
COC(=O)C(C#N)=Cc1ccc(Br)o1,3-(5-Bromo-2-furyl)-2-methoxycarbonylacrylonitrile,2.41,OCHEM
CCCCOC(=O)CC,Butyl propionate,2.67,eChemPortal
O=C(NCCCCCCNC(=O)S(=O)(=O)O)S(=O)(=O)O.[HH].[HH].[Na+].[Na+],–,-3.05,eChemPortal
Nc1c[n+]([O-])c2ccccc2[n+]1[O-],Tirapazamine,-0.3,OCHEM
O=S(=O)([N-]Cl)c1ccccc1.[Na+],Chloramine B,0.14,eChemPortal
Br.CC(=O)NC1CCc2nc(N)sc2C1 (stereo unspecified),–,-0.041,eChemPortal
CCCCCCCC=O,Octanal,3.5,"PubChem, eChemPortal"
CC(C)C(N)C(=O)OCc1ccccc1.Cc1ccc(S(=O)(=O)O)cc1 (stereo unspecified),4-Methylbenzene-1-sulfonic acid--benzyl valinate (1/1),-0.13,eChemPortal
CCCC(Nc1ccc([N+](=O)[O-])cc1[N+](=O)[O-])C(=O)O (racemic),–,2.88,OCHEM
COCCNCc1cc2sc(S(N)(=O)=O)cc2s1,–,0.51,OCHEM
CCOc1ccc(NC(=O)c2cc3ccccc3cc2O)cc1,"2-Naphthalenecarboxamide, N-(4-ethoxyphenyl)-3-hydroxy-",2.8,eChemPortal
CC1=CC(=O)[C@@H]2[C@H](C1)C2(C)C,"(1R,6S)-4,7,7-Trimethylbicyclo[4.1.0]hept-3-en-2-one",2.3,eChemPortal
C#CC(C)OC(=O)Nc1cccc(Cl)c1 (stereo unspecified),Chlorbufam,3.59,PubChem
O=C1Nc2ccc(Cl)cc2[C@@](C#CC2CC2)(C(F)(F)F)O1,Efavirenz,4.6,PubChem
CCOC(C)(C)C,Ethyl t-butyl ether,1.48,"PubChem, eChemPortal"
CC1=NN(c2cccc(S(=O)(=O)[O-])c2)C(=O)C1/N=N/c1cc(Cl)c(C)cc1S(=O)(=O)[O-].[NH4+].[NH4+].[NH4+].[NH4+] (stereo partly drawn),–,-1.43,eChemPortal
Nc1c(/N=N/c2ccc([N+](=O)[O-])cc2)c(S(=O)(=O)[O-])cc2cc(S(=O)(=O)[O-])c(/N=N/c3ccc(S(=O)(=O)Nc4ccc(/N=N/c5ccc(O)cc5O)cc4)cc3)c(O)c12.[Na+].[Na+],–,-1.754,eChemPortal
C=CCS(=O)(=O)[O-].[Na+],"2-Propene-1-sulfonic acid, sodium salt",-3.5,eChemPortal
COc1cc(S(=O)(=O)[O-])c(C)cc1NC(=O)C(/N=N/c1ccc(-c2nc3ccc(C)c(S(=O)(=O)[O-])c3s2)cc1)C(C)=O.[Na+].[Na+] (stereo partly drawn),–,-1.925,eChemPortal
CCCCCOC(=O)c1cc(=O)[nH]c(=O)[nH]1,"Pentyl 2,6-dioxo-1,2,3,6-tetrahydropyrimidine-4-carboxylate",1.62,OCHEM
CC(CC(N)=O)n1nnc2ccccc21 (stereo unspecified),3-(1H-Benzotriazol-1-yl)butanamide,0.75,OCHEM
Nc1c(S(=O)(=O)[O-])cc(NC2CCC(Nc3nc(Nc4cc(S(=O)(=O)[O-])ccc4S(=O)(=O)[O-])nc(-[n+]4cccc(C(=O)O)c4)n3)CC2)c2c1C(=O)c1ccccc1C2=O.[Na+].[Na+].[Na+] (stereo unspecified),–,-4.169,eChemPortal
Nc1cccc(OCc2ccccc2)c1,3-Benzyloxyaniline,2.77,OCHEM
O=S(=O)([O-])c1cc([O-])c(/N=N/c2c([O-])ccc3ccccc23)c2ccccc12.O=S(=O)([O-])c1cc([O-])c(/N=N/c2c([O-])ccc3ccccc23)c2ccccc12.[Cr+3].[H+].[Na+].[Na+],C.I. Acid Blue 193,-1.01,eChemPortal
COc1ccccc1N1CCN(CCNC(=O)c2ccco2)CC1,–,1.6,OCHEM
CCOCC[N+](C)(C)C.[I-],"2-Ethoxy-N,N,N-trimethylethan-1-aminium iodide",-2.22,OCHEM
COC(=O)CC(C)=O,Methyl acetoacetate,-0.33,"PubChem, eChemPortal"
CC(=O)CC(C)(C)O,Diacetone alcohol,-0.14,OCHEM
Cc1ccc(S(=O)(=O)O)cc1.O=C(O)c1cccnc1,"3-Pyridinecarboxylic acid, 4-methylbenzenesulfonate",0.36,OCHEM
CCCN(CCC)c1cc(N)n(O)c(=N)n1,6-Amino-4-(dipropylamino)-2-iminopyrimidin-1(2H)-ol,3.19,OCHEM

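OPERA's authors assembled the values from existing databases and did not measure them anew. A listed value is a point estimate from one report or more. How each value was measured is not recorded, so precision varies. Where a salt, mixture or single isomer is drawn, the source does not say that exactly this form was tested. Unmarked limits or estimates from the upstream databases cannot be ruled out.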